Literature values, collected in patent US20050272649A1, “Conjoint administration of morphogens and ACE inhibitors in treatment of chronic renal failure” (priority 2002, published 2005).

Target: AT1 receptor (Homo sapiens, UniProt P30556)
Details: cited from earlier work

Compound	affinity for the AT1 receptor relative to affinity for the AT2 receptor
CCCc1nc2c(C)cc(-c3nc4ccccc4n3C)cc2n1Cc1ccc(-c2ccccc2C(=O)O)cc1 [Telmisartan]	more than 3,000 times
CCCCC(=O)N(Cc1ccc(-c2ccccc2-c2nnn[nH]2)cc1)[C@H](C(=O)O)C(C)C [Valsartan]	about 20,000 times
CCCCc1nc(Cl)c(CO)n1Cc1ccc(-c2ccccc2-c2nn[nH]n2)cc1 [Losartan]	about 1,000 times
